As a reminder, the EC50 is the midpoint of the concentration-response curve.

One test deals with T1, GlyT2 A639C mutant (Rattus norvegicus, UniProt P58295, A639C).
T1 construct: expressed in transfected cells; host or cells: COS7
T1 sequence (P58295 1-799 A639C): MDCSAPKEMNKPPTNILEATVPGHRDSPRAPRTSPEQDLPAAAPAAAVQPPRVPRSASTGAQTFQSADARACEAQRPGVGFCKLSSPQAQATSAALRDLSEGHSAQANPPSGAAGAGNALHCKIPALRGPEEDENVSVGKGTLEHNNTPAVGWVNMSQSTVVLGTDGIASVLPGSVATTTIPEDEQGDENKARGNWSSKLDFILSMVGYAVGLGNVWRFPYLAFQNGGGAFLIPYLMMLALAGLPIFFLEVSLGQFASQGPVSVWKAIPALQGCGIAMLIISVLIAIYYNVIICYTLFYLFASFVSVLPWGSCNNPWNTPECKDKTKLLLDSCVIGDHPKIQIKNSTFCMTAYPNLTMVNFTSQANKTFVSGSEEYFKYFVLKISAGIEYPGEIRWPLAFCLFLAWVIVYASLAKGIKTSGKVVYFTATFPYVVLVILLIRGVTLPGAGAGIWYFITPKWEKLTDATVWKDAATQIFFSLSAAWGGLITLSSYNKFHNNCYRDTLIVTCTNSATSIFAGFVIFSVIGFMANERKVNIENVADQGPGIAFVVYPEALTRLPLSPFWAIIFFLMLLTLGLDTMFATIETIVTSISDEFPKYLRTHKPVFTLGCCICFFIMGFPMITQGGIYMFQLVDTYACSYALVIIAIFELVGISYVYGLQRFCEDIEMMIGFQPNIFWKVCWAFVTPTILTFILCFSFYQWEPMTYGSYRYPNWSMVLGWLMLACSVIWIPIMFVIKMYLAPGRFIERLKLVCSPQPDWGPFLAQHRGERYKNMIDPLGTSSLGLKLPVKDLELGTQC
The test is described as follows: [3H]glycine transport by GlyT2 mutant in COS7 cells. Type of test: cell-based.

Another test has as its target T2, GlyT2 D635E mutant (Rattus norvegicus, UniProt P58295, D635E).
T2 construct: expressed in transfected cells; host or cells: COS7
T2 sequence (P58295 1-799 D635E): T1 sequence (P58295 1-799 A639C) with D635E, C639A
The description is as above. Type of test: cell-based.

Molecules are shown by their SMILES. Substitutions are numbered along the chain they refer to.

Regarding `NCC(=O)O` [Gly, glycine], the EC50 on GlyT2 A639C mutant came out at 176 ± 14 µM; on GlyT2 D635E mutant, 123 ± 6 µM.

Source of the values: paper PMC8691691 (ACS Chemical Neuroscience, 2021).
